Results from patent US20030215462A1, “Use of UGT inhibitors to increase bioavailability” (priority 2001, published 2003).

Key:
UGT1A8 = target: T1, UGT1A8 (Homo sapiens, UniProt Q9HAW9); test: Substrate glucuronidation by recombinant UGT1A8; conditions: 2ME2 50 μM
T1 sequence (Q9HAW9 26-530): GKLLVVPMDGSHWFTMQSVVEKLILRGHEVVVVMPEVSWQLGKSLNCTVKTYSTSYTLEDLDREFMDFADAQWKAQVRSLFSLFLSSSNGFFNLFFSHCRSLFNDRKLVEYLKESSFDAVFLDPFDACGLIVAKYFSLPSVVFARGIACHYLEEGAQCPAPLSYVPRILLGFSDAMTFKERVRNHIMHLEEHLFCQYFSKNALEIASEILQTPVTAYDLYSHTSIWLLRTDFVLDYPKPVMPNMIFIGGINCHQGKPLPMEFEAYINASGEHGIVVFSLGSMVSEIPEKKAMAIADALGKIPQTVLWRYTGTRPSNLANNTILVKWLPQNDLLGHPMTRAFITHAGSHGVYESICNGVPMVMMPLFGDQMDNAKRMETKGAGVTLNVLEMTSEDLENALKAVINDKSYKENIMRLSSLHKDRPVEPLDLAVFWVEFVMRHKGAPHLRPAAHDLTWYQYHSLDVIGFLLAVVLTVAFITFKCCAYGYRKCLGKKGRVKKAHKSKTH

UGT1A6 = target: T2, UGT1A6 (Homo sapiens, UniProt P19224); test: Substrate glucuronidation by recombinant UGT1A6
T2 sequence (P19224 27-532): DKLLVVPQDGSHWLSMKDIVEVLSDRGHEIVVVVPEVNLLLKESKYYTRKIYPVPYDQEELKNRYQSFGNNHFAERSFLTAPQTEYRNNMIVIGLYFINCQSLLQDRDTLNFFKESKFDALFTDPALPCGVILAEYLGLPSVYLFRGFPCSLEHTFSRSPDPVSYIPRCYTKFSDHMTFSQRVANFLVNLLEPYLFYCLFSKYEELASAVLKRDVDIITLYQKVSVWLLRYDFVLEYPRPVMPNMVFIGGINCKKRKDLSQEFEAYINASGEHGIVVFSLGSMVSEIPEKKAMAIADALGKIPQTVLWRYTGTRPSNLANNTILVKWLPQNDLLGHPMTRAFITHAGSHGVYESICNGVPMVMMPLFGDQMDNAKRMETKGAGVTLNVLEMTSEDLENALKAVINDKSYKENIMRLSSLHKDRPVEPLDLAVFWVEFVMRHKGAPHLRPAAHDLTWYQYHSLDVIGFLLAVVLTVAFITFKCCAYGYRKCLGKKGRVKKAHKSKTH

UGT1A10 = target: T3, UGT1A10 (Homo sapiens, UniProt Q9HAW8); test: Substrate glucuronidation by recombinant UGT1A10; conditions: UGT1A10 Supersomes; 2ME2 50 μM
T3 sequence (Q9HAW8 26-530): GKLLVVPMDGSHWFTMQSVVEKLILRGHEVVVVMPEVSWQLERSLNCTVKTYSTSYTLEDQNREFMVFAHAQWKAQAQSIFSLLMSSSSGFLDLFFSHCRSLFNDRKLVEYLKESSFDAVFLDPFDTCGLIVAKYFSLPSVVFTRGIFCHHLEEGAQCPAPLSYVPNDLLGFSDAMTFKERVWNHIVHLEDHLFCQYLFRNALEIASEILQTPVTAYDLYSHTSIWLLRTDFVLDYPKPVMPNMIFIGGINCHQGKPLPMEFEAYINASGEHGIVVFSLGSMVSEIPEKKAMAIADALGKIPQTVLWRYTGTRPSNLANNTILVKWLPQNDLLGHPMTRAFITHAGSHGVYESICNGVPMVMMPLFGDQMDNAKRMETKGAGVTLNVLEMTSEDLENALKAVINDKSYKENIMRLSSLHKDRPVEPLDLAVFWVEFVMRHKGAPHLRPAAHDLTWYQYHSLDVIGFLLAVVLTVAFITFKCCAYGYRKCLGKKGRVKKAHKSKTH

UGT1A9 = target: T4, UGT1A9 (Homo sapiens, UniProt O60656); test: Substrate glucuronidation by recombinant UGT1A9
T4 sequence (O60656 26-530): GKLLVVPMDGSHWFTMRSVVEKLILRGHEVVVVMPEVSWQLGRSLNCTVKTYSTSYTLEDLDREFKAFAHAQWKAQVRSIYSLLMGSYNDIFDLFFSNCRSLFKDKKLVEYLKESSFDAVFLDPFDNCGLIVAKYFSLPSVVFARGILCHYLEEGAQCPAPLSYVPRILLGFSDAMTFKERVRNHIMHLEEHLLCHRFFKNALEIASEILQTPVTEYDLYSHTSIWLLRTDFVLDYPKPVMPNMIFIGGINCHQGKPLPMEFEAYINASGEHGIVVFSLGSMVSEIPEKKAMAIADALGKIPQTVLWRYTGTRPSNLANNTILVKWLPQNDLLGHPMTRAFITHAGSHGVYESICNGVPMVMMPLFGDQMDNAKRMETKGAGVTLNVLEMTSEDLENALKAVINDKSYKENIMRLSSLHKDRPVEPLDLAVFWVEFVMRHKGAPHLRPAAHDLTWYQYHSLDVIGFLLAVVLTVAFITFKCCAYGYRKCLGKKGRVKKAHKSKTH

[1] = test system: pooled human jejunum microsomes

SMILES: COc1cc2c(cc1O)CC[C@@H]1[C@@H]2CC[C@]2(C)[C@@H](O)CC[C@@H]12 [2ME2, 2-Methoxyestradiol]
- rate of 2ME2 loss (UGT1A8; UGT1A8): 2377+57 pmol/min/mg
- ratio MG1/MG2 (UGT1A8; UGT1A8 Supersomes): 117
- relative metabolite level MG1 (UGT1A8; UGT1A8 Supersomes): 161 ± 2
- relative metabolite level MG2 (UGT1A8; UGT1A8 Supersomes): 1.4 ± 0.0
- 2ME2 metabolism, in words (UGT1A6; UGT1A6): No 2ME2 metabolism was observed
- relative metabolite level MG1 (UGT1A6; UGT1A6 Supersomes, 2ME2 50 μM): <LOQ
- relative metabolite level MG2 (UGT1A6; UGT1A6 Supersomes, 2ME2 50 μM): <LOQ
- rate of 2ME2 loss (UGT1A10): 3056 ± 43 pmol/min/mg
- relative metabolite level MG1 (UGT1A10): 212 ± 1
- relative metabolite level MG2 (UGT1A10): <LOQ
- 2ME2 metabolic activity as % of the activity of UGT1A10 (UGT1A9; UGT1A9): less than 10%
- ratio MG1/MG2 (UGT1A9; UGT1A9 Supersomes, 2ME2 50 μM): 7.5
- relative metabolite level MG1 (UGT1A9; UGT1A9 Supersomes, 2ME2 50 μM): 18 ± 0
- relative metabolite level MG2 (UGT1A9; UGT1A9 Supersomes, 2ME2 50 μM): 2.4 ± 0.0
- metabolism in intestinal (jejunal) versus hepatic microsomes, fold greater [1]: 20 fold
- ratio MG1/MG2 ([1]; jejunum HJ61, 2ME2 50 μM): 541
- relative metabolite level MG1 ([1]; jejunum HJ61, 2ME2 50 μM): 541 ± 18
- relative metabolite level MG2 ([1]; jejunum HJ61, 2ME2 50 μM): 1.0 ± 0.1
